AlphaSeq binding of Ab-14 light chain variants to a spike HR2 peptide

The measurements come from Li et al. 2023 (doi:10.1038/s41467-023-39022-2) through the FLAb antibody collection.

Antigen: PDVDLGDISGINAS, a 14-residue peptide of the SARS-CoV-2 spike HR2 region.

Ab-14 is the parent antibody, in scFv form: VH, then the linker GGGGSGGGGSGGGGS, then VL. The heavy chain is unchanged in all variants.
VH: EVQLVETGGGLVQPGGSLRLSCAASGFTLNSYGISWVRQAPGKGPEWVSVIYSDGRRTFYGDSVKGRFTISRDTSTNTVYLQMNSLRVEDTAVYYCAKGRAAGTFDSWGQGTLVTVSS
VL: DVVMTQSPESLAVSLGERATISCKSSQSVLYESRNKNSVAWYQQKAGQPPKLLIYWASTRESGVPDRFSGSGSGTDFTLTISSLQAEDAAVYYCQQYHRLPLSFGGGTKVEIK

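These sequences belong to a second round, designed from the earlier measurements on random variants of the parent. Group labels follow the data file (Ctrl: baseline library sampled from a position-specific scoring matrix, with some repeated check sequences; En: ensemble of fine-tuned language models; GP: Gaussian process model; HC: hill climbing; Gen: genetic algorithm; Gibbs: Gibbs sampling; a sequence that several methods proposed may carry one label only). The assay is AlphaSeq: two haploid yeast populations carry antibody and antigen on their surface. Binding brings cells together so that they mate, and sequencing counts the barcode pairs among the diploids. Scores were corrected for input abundance and mapped to Kd with protein pairs of known affinity run in the same pool. Each pool was mated in six replicate cultures.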

Variants are written as CDR1, CDR2 and CDR3 of the light chain (limits as in the source). Parent: KSSQSVLYESRNKNSVA, WASTRES, QQYHRLPLS.
The read-out is the apparent dissociation constant on a log10 scale (nM): the lower, the stronger.
Averages over replicates are reported, and they cover detected replicates only.
An entry "nd" has no value in the source: the pair was not observed among the diploids in any replicate. This suggests poor binding but is not conclusive.
Of ten entries with the parent sequence, four were seen in most replicates (averages 0.34 to 2.37), three in one and three in none, so single entries are noisy.
In the paper, a design with two or fewer of six values counts as a poor binder.
Background: pairings of all light chain designs with three empty control strains gave a value in 4% of cases (median 2.64, 5th percentile 1.59). Values in that range, when seen in few replicates, are hard to tell from nonspecific mating.
A sequence measured in both rounds can read differently, since the two assays cover different ranges.

| # | CDR-L1 | CDR-L2 | CDR-L3 | group | mean, log10 nM | replicates with signal |
|---|---|---|---|---|---|---|
| 1 | MIHESMGLMMHKHSSIA | DNSTREE | QQYDRLPLS | En_Gen | 2.24 | 2/6 |
| 2 | KFSQSVLYESRNKNSVA | GASTRMA | QQYHELPLS | Ctrl | 0.51 | 6/6 |
| 3 | WTSQSVLYQSRNKGSVA | QASTRES | QQYHNLPLS | Ctrl | 2.28 | 5/6 |
| 4 | MLSEMLHMLGTKKNSIA | DLVLRAN | QQYHRLPLS | En_Gen | 1.69 | 4/6 |
| 5 | KSSQSVLYGSRNLNSVA | WHSTRCS | QQYHRLMLS | Ctrl | nd | 0/6 |
| 6 | KIGQLLMLEQYRKNNVA | GTETRVT | QHYHRLPLS | En_Gen | 1.96 | 2/6 |
| 7 | KISQAQLYESRNKNSVA | QASHREQ | QQYHRLPLS | GP_Gibbs | 0.24 | 6/6 |
| 8 | NSSQSWLYESRNKNSVA | GGSTRES | QQYHRLPLS | GP_HC | 0.07 | 6/6 |
| 9 | KSSQSVLYESRNKNSVA | WTSTRES | QQYHRLPLS | Ctrl | 2.03 | 2/6 |
| 10 | KSSQSVFYESRRKNPVA | KASTRES | QQYHRLPLS | Ctrl | 1.43 | 1/6 |
| 11 | KVSNSYLLESRNKNSVA | EASTRES | QQYHRLPLS | GP_HC | 0.10 | 6/6 |
| 12 | KSSQSVLYESENKNSVA | RASTRES | QQYHRLPLS | Ctrl | 0.57 | 6/6 |
| 13 | KLQQSVMYESRNKNSVA | NASTRMS | QQYHRLPLS | GP_Gen | 0.23 | 6/6 |
| 14 | ELFFNDDQLQEQSNNIA | HASLRSV | QQYMHLPLV | En_Gibbs | 0.85 | 6/6 |
| 15 | KSGGGFLYESRNKNSVA | GASMRES | QQYHRLPLS | GP_Gibbs | 0.70 | 6/6 |
| 16 | KESQSWWYESRNKNSVA | GASTRES | QQYHRLPLM | GP_HC | 0.88 | 6/6 |
| 17 | KSSQSVLGESRNKNSVA | GASTRER | QQYHRLPLS | Ctrl | 0.82 | 6/6 |
| 18 | KLQQSELYESRNKNSVA | SASTRES | QQYHRLPLS | GP_Gen | 0.84 | 6/6 |
| 19 | KQSQSQGGWQRNKNSVA | EASTREM | QQYHRLPLS | GP_Gibbs | 0.18 | 6/6 |
| 20 | MLSEVLHMLGVQQNSIA | DLVLRAN | QQYHRLPLM | En_Gen | nd | 0/6 |
| 21 | MISQLYNMGQFAINSVA | QASIRND | QQYDRLPLV | En_Gen | 0.58 | 6/6 |
| 22 | KFSPSWLYESRTKNSVA | NASTRES | QQYHRLPLS | GP_HC | -0.36 | 6/6 |
| 23 | KLEQSMLYESRNKNSVA | NASQRES | QQYHRLPLS | GP_Gen | -0.18 | 6/6 |
| 24 | TLGMVTMQLSVNKNSVA | DANTSED | QQYDRLPLS | En_HC | 1.56 | 1/6 |
| 25 | KSSQSVLYESRAKNSVA | WASTRES | QQYHRLDLS | Ctrl | 2.24 | 2/6 |
| 26 | KLSMTMLMESRHKNSVA | ENSTREE | QHYHRLPLS | En_HC | 4.81 | 1/6 |
| 27 | KISMYLNKEKKAGNNVA | EMVTREA | QQYDRLPLS | En_HC | 0.84 | 6/6 |
| 28 | KVSTSQEYEDRNKNSVA | HASTRLQ | QQYHRLPLS | GP_Gibbs | -0.11 | 6/6 |
| 29 | KSSQSVMGEDGNKNSVA | HASVRES | QQYHRLPLM | GP_Gibbs | 0.64 | 6/6 |
| 30 | MVNGIMDHLSKQTNNVA | ETTTRES | QQYDRLPLV | En_Gen | 0.92 | 6/6 |
| 31 | KLQQSDLYESRNKNSVA | NASTRLS | QQYHRLPLS | GP_Gen | -0.21 | 6/6 |
| 32 | KISQSVLGEQRNKNSVA | DISTRES | QQYHRLPLS | GP_HC | -0.12 | 6/6 |
| 33 | KLLQVTTEHGAALNNIA | EGARRND | QQYARLPLV | En_Gibbs | 0.59 | 6/6 |
| 34 | KFSQSVLYESRASNSVA | NASTRES | QQYHRLPLS | GP_HC | 0.21 | 6/6 |
| 35 | KLDLENGHEGKKGQNIA | EASTAGD | QSYWRLPLY | En_Gibbs | 1.78 | 6/6 |
| 36 | SLYEMNYELSGKTHSVA | DNSTRGD | QQYFRLPLD | En_Gen | 1.21 | 6/6 |
| 37 | LLPQSMEYESRNKQSVA | AASTRES | QQYHRLPLS | GP_Gibbs | 0.30 | 6/6 |
| 38 | KSSQKVNYESWDHNSVA | WASMRES | QQYHRLPLS | Ctrl | 1.81 | 6/6 |
| 39 | HISTLMRYESSLKNAIA | NAQTRES | QQYHRLPLS | En_HC | 0.66 | 6/6 |
| 40 | HSQQSVPYESRNKNSVA | NASLRCS | QQYHRLPLS | GP_Gibbs | 0.24 | 6/6 |
| 41 | KLQQSDLYESRNKNSVA | HASTRLS | QQYHRLPLS | GP_Gen | -0.16 | 6/6 |
| 42 | HIQGYFTMPENANNNIA | EKHYQVR | QQYYRLPLA | En_Gibbs | 2.29 | 1/6 |
| 43 | KLSQSVLYESRNKNSVA | NASQRFS | QQYHRLPLS | GP_Gen | -0.14 | 6/6 |
| 44 | KSSQSVLYESRNKNSVA | WAMTRES | QQYQRLPLS | Ctrl | nd | 0/6 |
| 45 | TISTSALYESTNKNSVA | ELSTRGQ | QQYERLPLS | En_HC | 0.46 | 6/6 |
| 46 | KLDQSWLYESRNKNSVA | NASTRES | QQYHRLPLS | GP_Gen | 0.57 | 6/6 |
| 47 | KMEQGVLYESRNKGSVA | GASVRES | QQYHRLPLS | GP_HC | 0.17 | 6/6 |
| 48 | HMSALTLMGSRTRNSVA | QMTTREN | QQYDRLPLV | En_Gen | 0.51 | 6/6 |
| 49 | KSSQMVSYESRNKNSVA | NASTRES | QQYHRAPLS | Ctrl | nd | 0/6 |
| 50 | KMSQSVLYESRNFNSVA | WASTRES | QQYHRLPLS | Ctrl | 1.23 | 4/6 |
| 51 | KSSISQLYESMNKNSVA | NASTRES | QQYHRLPLS | GP_HC | 0.08 | 6/6 |
| 52 | KNVQSVLYESRNKNAVA | WASTRES | QQYHRLPLS | Ctrl | 1.34 | 2/6 |
| 53 | MVTQMAMTGMTNKRSVA | NAETRES | QQYHRLPLI | En_Gen | 0.33 | 6/6 |
| 54 | KSSLSGLYESRNKHSHA | WASTRES | QQYHRLPLS | Ctrl | nd | 0/6 |
| 55 | KLSESVLYESRNKNAVA | NASTRES | QQYHRLPLS | GP_Gen | -0.36 | 6/6 |